The subject of this assay is Candida albicans. Put plainly: Antifungal activity against Candida albicans HLY4123 after 16 hrs in presence of 0.25 ug/ml of fluconazole by ten fold serial dilution method. The class given is functional.
Consider `COc1ccc(-n2nc(C(=O)NCC(=O)NCCC3=CCCCC3)c3ccccc3c2=O)c(OC)c1`, for which the Activity entry is “Dose-dependent effect”.

In the case of `COc1cc(Br)ccc1-n1nc(C(=O)NCC(=O)NCCC2=CCCCC2)c2ccccc2c1=O`, the Activity result is “Dose-dependent effect”.

Turning to `COc1cc(Br)ccc1-n1cc(C(=O)NCC(=O)NCCC2=CCCCC2)c2ccc(C#CCCCO)cc2c1=O`, the Activity entry is “Dose-dependent effect”.

Consider `COc1cc(Br)ccc1-n1cc(C(=O)NCC(=O)NCCC2=CCCCC2)c2ccc(Br)cc2c1=O`, for which the Activity result was “Dose-dependent effect”.

In the case of `COc1cc(C)ccc1-n1cc(C(=O)NCC(=O)NCCC2=CCCCC2)c2ccccc2c1=O`, the Activity result was “Dose-dependent effect”.

Turning to `COc1cc(Br)ccc1-n1cc(C(=O)NCC(=O)NCCC2=CCCCC2)c2ccccc2c1=O`, the Activity entry is “Dose-dependent effect”.

As to `COc1cc(Br)ccc1-n1cc(C(=O)NCC(=O)NCCc2ccccc2)c2ccccc2c1=O`, the Activity entry is “Dose-dependent effect”.

For `COc1cc(Br)ccc1-n1cc(C(=O)NCCc2ccccc2)c2ccccc2c1=O`, the Activity result was “Dose-dependent effect”.

With `COc1cc(Br)ccc1-n1cc(C(=O)N[C@@H](CCCCNC(=O)OCc2ccccc2Cl)C(=O)NCCC2=CCCCC2)c2ccccc2c1=O`, the Activity result was “Dose-dependent effect”.

In the case of `COc1cc(C#CCCCO)ccc1-n1cc(C(=O)NCC(=O)NCCC2=CCCCC2)c2ccccc2c1=O`, the Activity result is “Dose-dependent effect”.

As for `COc1cc(Br)ccc1-n1cc(C(=O)NCC(=O)NCCC2=CCCCC2)c2occc2c1=O`, the Activity entry was “Dose-dependent effect”.

Take `COc1ccc(-n2cc(C(=O)NCC(=O)NCCC3=CCCCC3)c3ccccc3c2=O)c(OC)c1`: the Activity result is “Dose-dependent effect”.

On to `COc1cc(Br)ccc1-n1cc(C(=O)NCC(=O)NCCC2=CCCCC2)c2sccc2c1=O`, for which the Activity result was “Dose-dependent effect”.

These data come from ChEMBL document CHEMBL3875229, “Potent Antifungal Synergy of Phthalazinone and Isoquinolones with Azoles Against Candida albicans” (ACS Med Chem Lett, 2017).
